From ChEMBL document CHEMBL1124159, “Synthesis and structure-activity relationships of 2-sulfonamido-1,3,4,6,7,11b alpha-hexahydro-2H-benzo[a]quinolizines as alpha 2-adrenoceptor antagonists” (J Med Chem, 1988)

Protein sequences, listed by entry. Tags and fused reporters are not part of them.
UniProt P22086, whole entry, looked up: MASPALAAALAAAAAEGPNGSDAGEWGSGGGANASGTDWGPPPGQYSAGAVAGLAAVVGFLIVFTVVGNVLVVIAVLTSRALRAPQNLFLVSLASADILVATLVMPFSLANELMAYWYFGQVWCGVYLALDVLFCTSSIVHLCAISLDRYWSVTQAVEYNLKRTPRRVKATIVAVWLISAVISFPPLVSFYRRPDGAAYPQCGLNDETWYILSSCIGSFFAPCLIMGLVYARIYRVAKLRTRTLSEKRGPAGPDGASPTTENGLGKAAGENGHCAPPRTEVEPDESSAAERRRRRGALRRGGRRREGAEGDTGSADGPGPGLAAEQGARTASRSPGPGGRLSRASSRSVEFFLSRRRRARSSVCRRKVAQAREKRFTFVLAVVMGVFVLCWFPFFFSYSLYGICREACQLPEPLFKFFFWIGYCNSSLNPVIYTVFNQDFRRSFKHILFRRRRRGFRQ
UniProt P19328, whole entry, looked up: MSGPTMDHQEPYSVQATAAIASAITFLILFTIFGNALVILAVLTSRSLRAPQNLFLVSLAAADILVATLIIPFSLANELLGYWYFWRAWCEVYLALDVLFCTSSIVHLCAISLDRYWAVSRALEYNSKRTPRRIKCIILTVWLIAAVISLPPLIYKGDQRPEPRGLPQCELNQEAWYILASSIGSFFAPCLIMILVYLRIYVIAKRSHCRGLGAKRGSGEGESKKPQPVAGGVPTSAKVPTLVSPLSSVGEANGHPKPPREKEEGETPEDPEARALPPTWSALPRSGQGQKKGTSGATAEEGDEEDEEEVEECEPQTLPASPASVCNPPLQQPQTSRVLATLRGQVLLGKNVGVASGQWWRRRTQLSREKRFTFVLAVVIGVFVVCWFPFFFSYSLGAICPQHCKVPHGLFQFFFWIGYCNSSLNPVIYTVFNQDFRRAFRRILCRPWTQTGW
UniProt P22909, whole entry, looked up: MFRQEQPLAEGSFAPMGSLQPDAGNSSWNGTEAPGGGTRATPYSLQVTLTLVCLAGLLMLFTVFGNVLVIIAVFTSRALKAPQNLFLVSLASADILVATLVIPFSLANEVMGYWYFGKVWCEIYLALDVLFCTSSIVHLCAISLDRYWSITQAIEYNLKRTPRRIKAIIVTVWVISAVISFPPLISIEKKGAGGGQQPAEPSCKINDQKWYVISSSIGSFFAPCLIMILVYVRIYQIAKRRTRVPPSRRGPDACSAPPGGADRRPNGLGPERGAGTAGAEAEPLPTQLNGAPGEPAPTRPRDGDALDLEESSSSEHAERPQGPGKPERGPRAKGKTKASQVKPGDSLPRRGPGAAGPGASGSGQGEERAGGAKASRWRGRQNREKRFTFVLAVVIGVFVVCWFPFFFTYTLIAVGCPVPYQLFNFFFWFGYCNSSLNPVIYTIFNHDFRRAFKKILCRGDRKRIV

Target: Adrenergic receptor alpha-2 (Rattus norvegicus, UniProt P22086+P19328+P22909)
Test: Antagonistic activity against alpha-2 adrenergic receptor in rat vas deferens
Assay type: functional, tissue-based

| Structure (SMILES) | pA2 |
| --- | --- |
| COC(=O)N(C)[C@@H]1CCN2CCc3ccccc3[C@@H]2C1 | 7.9 |
| CC(C)CC(=O)N(C)[C@@H]1CCN2CCc3ccccc3[C@@H]2C1 | 6.45 |
| CC(C)COC(=O)N(C)[C@@H]1CCN2CCc3ccccc3[C@@H]2C1 | 7.1 |
| CCOC(=O)N(C)[C@@H]1CCN2CCc3ccccc3[C@@H]2C1 | 7.77 |
| CN(C(N)=O)[C@@H]1CCN2CCc3ccccc3[C@@H]2C1 | 6 |
| CC(=O)N(C)[C@@H]1CCN2CCc3ccccc3[C@@H]2C1 | 6.5 |
| CN(C(=O)c1ccccc1)[C@@H]1CCN2CCc3ccccc3[C@@H]2C1 | 6.62 |
